Values of other authors in paper PMC12901815 (Environmental Analysis, Health and Toxicology, 2025).
Read-outs that look alike come from different tables or passages of the source.

Columns and labels:
[1] = male Alderley Park rats, single oral 20 mg/kg, over 240 hours; cited from earlier work
[2] = rats with cannulated bile ducts, single oral 20 mg/kg, cited from earlier work
[3] = rats, via drinking water or in the diet; cited from earlier work

Substance: polyaminopropylbiguanide [PHMB]
- radioactivity excreted in feces [1]: 93.1 ± 1.58%
- radioactivity excreted in urine [1]: 5.6 ± 0.35%
- radioactivity excreted via exhalation [1]: 0.2%
- radioactivity excreted in feces ([2]; females): 98.9%
- radioactivity excreted in feces ([2]; males): 96.8%
- biliary excretion of administered radioactivity [2]: less than 0.2%
- urinary excretion of administered radioactivity [2]: less than 3%
- absorption and route of excretion [3]: absorbed; most of it was excreted in urine, with smaller amounts excreted in feces
